Target: PDE4B1-S133D (Homo sapiens, UniProt Q07343, S133D/S659A/S661A)
Experiment: PDE4 coupled enzyme assay of cAMP hydrolysis, PDE4B1-S133D
Format: biochemical
Details: mean ± SD

Protein sequences, listed by entry. Tags and fused reporters are not part of them.
UniProt Q07343, whole entry S133D/S659A/S661A: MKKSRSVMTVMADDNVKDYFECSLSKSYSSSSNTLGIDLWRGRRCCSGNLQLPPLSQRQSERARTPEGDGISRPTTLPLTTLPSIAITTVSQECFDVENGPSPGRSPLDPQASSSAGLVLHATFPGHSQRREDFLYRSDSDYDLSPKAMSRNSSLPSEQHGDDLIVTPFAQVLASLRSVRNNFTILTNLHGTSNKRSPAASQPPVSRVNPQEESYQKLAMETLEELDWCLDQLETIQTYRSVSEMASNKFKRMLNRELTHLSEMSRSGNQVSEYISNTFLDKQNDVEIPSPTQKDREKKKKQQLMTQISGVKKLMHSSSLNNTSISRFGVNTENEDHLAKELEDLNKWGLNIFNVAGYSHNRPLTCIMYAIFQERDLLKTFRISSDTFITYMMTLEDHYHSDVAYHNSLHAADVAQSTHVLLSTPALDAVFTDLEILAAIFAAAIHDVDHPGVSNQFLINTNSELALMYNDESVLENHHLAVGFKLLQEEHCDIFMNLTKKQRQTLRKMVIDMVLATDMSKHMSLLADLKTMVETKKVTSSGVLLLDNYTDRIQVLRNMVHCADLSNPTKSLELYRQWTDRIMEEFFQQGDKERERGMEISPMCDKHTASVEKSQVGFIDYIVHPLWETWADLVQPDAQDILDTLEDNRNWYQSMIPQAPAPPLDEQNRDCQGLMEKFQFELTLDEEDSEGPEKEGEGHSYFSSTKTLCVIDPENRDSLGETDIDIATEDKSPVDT

Hill Slope PDE4B1-S133D dimer activated: 1.0 ± 0.05
Compound: CCOc1cc([C@@H](CS(C)(=O)=O)N2C(=O)c3cccc(NC(C)=O)c3C2=O)ccc1OC [30 (apremilast), apremilast, reference compound]

From publication PMC7444661 (Journal of medicinal chemistry, 2019)
